# Values of other authors in paper PMC5578202, “Bioaccessibility, Intestinal Permeability and Plasma Stability of Isorhamnetin Glycosides from Opuntia ficus-indica (L.)” (International Journal of Molecular Sciences, 2017).
# Details: ref Ortega et al. [39]; cited from earlier work
substance,measurement,value
myricetin-glucoside,Recovery after a simulated digestion process,44.2%
